Most compounds without a hit are left out; they make up all but 4.2% or so of the library.
HDAC3 inh: human HDAC3 inhibition | 320,000 tested, 0.15% active | inhibition, % at 8.3 µM | AID 2718 | recombinant HDAC3, fluorogenic peptide/trypsin coupled, fluorescence | O15379; in the data active = inhibition above about 26%, passing the limit was not always enough; inconclusive = no clear call, values can overlap the other calls
MC4R ag barr: agonists of human melanocortin 4 receptor (MC4R) beta-arrestin | U2OS MC4R beta-arrestin complementation, luminescence; percent of melanotan II response, DMSO zero | activation, % at 8.9 µM | 360,000 tested, 0.98% active;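 active = activation above a per-plate cutoff, the mean activation of sample wells on that plate plus 3 SD, cut at about 8% in these data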
UUG fidelity: modulators of yeast start codon fidelity, primary screen, whole organism, S. cerevisiae, single point, plate reader; S. cerevisiae UUG-firefly luciferase reporter, luminescence/redox ratio; activity score, % at 18.7 µM; actives 0.13% (n = 350,000); AID 602363, 2012;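 active = replicate mean at a twofold rise or more, about +100% in these data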;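 also: firefly luciferase made from a UUG start codon reports start codon fidelity; reporter light over untreated wells divided by growth signal over untreated wells; some hits fall short of that in this replicate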
NALP1 yeast inh: NALP1 inhibition; S. cerevisiae NALP1/ASC/caspase-1 growth, X-gal OD620, 72 h; inhibition, % at 10 µM; 280,000 tested, 0.61% active; in the data active = inhibition mostly above about 24%, no sharp cut-off; inactive = mostly below about 32%
MC4R antagonist: antagonists of human melanocortin 4 receptor (MC4R); MC4R-expressing cells, MTII-stimulated cAMP, LANCE TR-FRET; P32245; 360,000 tested, 0.48% active; inhibition, % at 6.5 µM;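 active = inhibition above its plate's cutoff, the mean of tested wells on that plate plus 3 SD, cut at about 29% in these data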
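material = U2OS cells stably expressing human melanocortin 4 receptor (MC4R) | also added = Melanotan II challenge | dosing = single nominal compound dose of 6.5 µM | detection = TR-FRET with Eu-cAMP and labeled anti-cAMP, 671 nm | replication = singlicate | timing = compound 30 min, challenge 1 h, detection 1 h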
ALR inh: inhibitors of human ALR sulfhydryl oxidase, primary screen, biochemical, H2O2 detection, HRP-luminol luminescence, single point; purified ALR, DTT oxidation; inhibition, % (no concentration beside the values); 290,000 tested, 3.8% active;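 active = mean and each replicate at 75% or more; inconclusive = only one of the two met; inactive = neither met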;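 also: stock transfer was 7.5 nL into about 7.5 µL; 0% = neutral wells and 100% = wells with inactivated enzyme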
Hits are given with their value.

What do the screens show for `Cn1cc(C(=O)N/N=C/C2=C(N3CCOCC3)C(=C\c3ccccc3)/CC2)ccc1=O`?
HDAC3 inh: inactive; MC4R ag barr: inactive; NALP1 yeast inh: inactive; MC4R antagonist: inactive; ALR inh: 89

How did CC(C)NC(=O)N(C)C[C@H]1Oc2cc(-c3cccnc3)ccc2S(=O)(=O)N([C@H](C)CO)C[C@H]1C do in these assays?
UUG fidelity: inactive

What do the screens show for `CCOc1cc(S(=O)(=O)Nc2ccccc2CC)ccc1Cl`?
HDAC3 inh: inactive; MC4R ag barr: inactive; NALP1 yeast inh: inactive; MC4R antagonist: inactive; ALR inh: inactive

How did CCOc1cc(S(=O)(=O)Nc2ccc(CC)cc2)ccc1Cl do in these assays?
HDAC3 inh: inconclusive; MC4R ag barr: 9.4; UUG fidelity: inactive; NALP1 yeast inh: inactive; MC4R antagonist: inactive; ALR inh: inactive

Results for CC(C)c1ccc(Oc2cccc(C(=O)/C(C#N)=C/N(C)C)c2)cc1 ?
HDAC3 inh: inactive; MC4R ag barr: inactive; UUG fidelity: inactive; NALP1 yeast inh: inactive; MC4R antagonist: inactive; ALR inh: 98

What do the screens show for `O=S(=O)(N[C@H]1CC[C@H](CCn2cc(C3(O)CCCC3)nn2)O[C@H]1CO)c1ccc(F)cc1`?
UUG fidelity: inactive

How did Cc1ccc(/C=C(\NC(=O)c2ccc(C)cc2)c2nc(=S)[nH][nH]2)cc1 do in these assays?
HDAC3 inh: inactive; MC4R ag barr: inactive; UUG fidelity: inactive; NALP1 yeast inh: inactive; MC4R antagonist: inactive; ALR inh: inactive

How did Cc1ccc(C(=O)N/C(=C\c2ccccc2F)c2nc(=S)[nH][nH]2)cc1 do in these assays?
HDAC3 inh: inactive; MC4R ag barr: inactive; NALP1 yeast inh: inactive; MC4R antagonist: inactive; ALR inh: 98

How did CN1c2ccc(-c3cccc(C#N)c3)cc2[C@H]2[C@H](CCN2S(=O)(=O)c2ccccc2)[C@H]1CO do in these assays?
UUG fidelity: inactive

What do the screens show for `O=C(O)Cn1cc(/C=N/Nc2ccc([N+](=O)[O-])cn2)c2ccccc21`?
HDAC3 inh: inactive; MC4R ag barr: inactive; UUG fidelity: inactive; NALP1 yeast inh: inactive; MC4R antagonist: inactive; ALR inh: 99

Results for C[C@@H]1CN([C@H](C)CO)C(=O)c2cc(NC(=O)Nc3ccc(C(F)(F)F)cc3)ccc2O[C@@H](C)CCCCO[C@H]1CN(C)S(=O)(=O)c1cn(C)cn1 ?
UUG fidelity: inactive

What do the screens show for `COc1ccc(C(C(=O)NC(C)C)N(C(=O)CCC(=O)Nc2nccs2)c2ccccc2F)cc1` (stereo not given)?
HDAC3 inh: inactive; MC4R ag barr: inactive; UUG fidelity: inactive; NALP1 yeast inh: 33; MC4R antagonist: inactive; ALR inh: inactive

Results for C[C@H](CO)N1C[C@H](C)[C@@H](CN(C)C(=O)C2CCC2)Oc2ncc(-c3ccc(F)cc3)cc2C1=O ?
UUG fidelity: inactive

Results for CCn1c2ccccc2c2cc(/C(C)=N/O)ccc21 ?
HDAC3 inh: inactive; MC4R ag barr: inactive; UUG fidelity: inactive; NALP1 yeast inh: inactive; MC4R antagonist: inactive; ALR inh: 98

What do the screens show for `Cc1ccc(S(=O)(=O)N(C)C[C@H]2OCCCC[C@H](C)Oc3ccc(NC(=O)NC4CCCCC4)cc3C(=O)N([C@H](C)CO)C[C@H]2C)cc1`?
UUG fidelity: inactive

Results for Cn1c(N)cc(=O)n(Cc2ccccc2)c1=O ?
HDAC3 inh: inactive; MC4R ag barr: inactive; UUG fidelity: inactive; NALP1 yeast inh: inactive; MC4R antagonist: inactive; ALR inh: 99

How did Cn1c(=O)c(C(=O)CCl)c(N)n(Cc2ccccc2)c1=O do in these assays?
HDAC3 inh: inactive; MC4R ag barr: inactive; UUG fidelity: inactive; NALP1 yeast inh: inactive; MC4R antagonist: inactive; ALR inh: inactive

How did Cn1c(N)c(C(=O)CCl)c(=O)n(Cc2ccccc2)c1=O do in these assays?
HDAC3 inh: inactive; MC4R ag barr: inactive; UUG fidelity: inactive; NALP1 yeast inh: inactive; MC4R antagonist: inactive; ALR inh: 99

How did CCCC#Cc1cnc2c(c1)C(=O)N([C@H](C)CO)C[C@@H](C)[C@@H](CN(C)C(=O)NC1CCCC1)O2 do in these assays?
UUG fidelity: inactive

How did N#C/C(=C(/O)CSc1ccccn1)c1nc2ccccc2s1 do in these assays?
HDAC3 inh: inactive; MC4R ag barr: inactive; NALP1 yeast inh: inactive; MC4R antagonist: inactive; ALR inh: 82

What do the screens show for `C[C@H](CO)N1C[C@H](C)[C@H](CN(C)Cc2ccncc2)Oc2c(NC(=O)C3CC3)cccc2C1=O`?
UUG fidelity: inactive

How did COc1ccc(Cl)cc1NC(=O)Cn1nnc(C(=O)NCc2ccc3c(c2)OCO3)c1N do in these assays?
HDAC3 inh: inactive; MC4R ag barr: 8.6; UUG fidelity: inactive; NALP1 yeast inh: inactive; MC4R antagonist: inactive; ALR inh: inactive

How did Nc1c(C(=O)NCc2ccc3c(c2)OCO3)nnn1CC(=O)Nc1ccc(Br)cc1 do in these assays?
HDAC3 inh: inactive; MC4R ag barr: 15; UUG fidelity: inactive; NALP1 yeast inh: inactive; MC4R antagonist: inactive; ALR inh: inactive

Results for Cc1ccc(NC(=O)Cn2nnc(C(=O)NCc3ccc4c(c3)OCO4)c2N)cc1 ?
HDAC3 inh: inactive; MC4R ag barr: inactive; UUG fidelity: inactive; NALP1 yeast inh: inactive; MC4R antagonist: inactive; ALR inh: inactive

How did COc1ccccc1NC(=O)Cn1nnc(C(=O)NCc2ccc3c(c2)OCO3)c1N do in these assays?
HDAC3 inh: inactive; MC4R ag barr: inactive; UUG fidelity: inactive; NALP1 yeast inh: inactive; MC4R antagonist: inactive; ALR inh: inactive

How did CO[C@@H]1CN(C)C(=O)c2cc(NC(=O)C3CC3)ccc2OC[C@@H](C)N(C(=O)C2CCCCC2)C[C@H]1C do in these assays?
UUG fidelity: inactive

How did O=C(NCC[C@H]1CC[C@@H](NC(=O)c2ccccc2F)[C@@H](CO)O1)c1ccc2c(c1)OCO2 do in these assays?
UUG fidelity: inactive

Results for Cn1c(=O)c2c(-c3ccccc3)n(-c3cccc(O)c3)cc2n(C)c1=O ?
UUG fidelity: inactive

Results for Cc1cccc(-c2c3c(=O)n(C)c(=O)n(C)c3cn2-c2ccc(O)cc2)c1 ?
HDAC3 inh: inactive; MC4R ag barr: inactive; UUG fidelity: inactive; MC4R antagonist: inactive; ALR inh: 95

Results for C[C@@H]1CCCCO[C@H](CN(C)C(=O)c2ccccc2)[C@@H](C)CN([C@@H](C)CO)C(=O)c2cc(N(C)C)ccc2O1 ?
UUG fidelity: inactive

Results for C[C@H]1CCCCO[C@H](CN(C)C(=O)C2CCCCC2)[C@@H](C)CN([C@@H](C)CO)C(=O)c2cc(NS(=O)(=O)c3cn(C)cn3)ccc2O1 ?
UUG fidelity: inactive

Results for CCOC(=O)C1CCN(c2c(NCCN(CC)c3ccccc3)c(=O)c2=O)CC1 ?
HDAC3 inh: inactive; MC4R ag barr: inactive; UUG fidelity: inactive; NALP1 yeast inh: inactive; MC4R antagonist: inactive; ALR inh: 98

What do the screens show for `CCOC(=O)N1CCN(c2c(NCCCN(C)c3ccccc3)c(=O)c2=O)CC1`?
HDAC3 inh: inactive; MC4R ag barr: inactive; UUG fidelity: inactive; NALP1 yeast inh: inactive; MC4R antagonist: inactive; ALR inh: 99
